Screen for blockers of NLRP3-driven cell death, PubChem AID 2061109 (Seoul National University).
Cells: mouse bone marrow macrophages; stimulus: LPS priming, then nigericin; dose: 5 µM; read-out: propidium iodide uptake by live imaging.
Inhibition in %: 0 = stimulated control, 100 = untreated cells; values below 0 were filed as 0. * marks the depositor's active call (above 70%). Part of the library is listed.

| smiles | inhibition [%] |
|---|---|
| COc1cccc2oc(-c3ccccc3)cc(=O)c12 | 0.0 |
| CC[C@@H](c1nc2cccc(F)c2c(=O)n1C1CC1)n1nc(-c2ccc(OC)c(F)c2)c2c(N)ncnc21 | 0.0 |
| Cc1cnc(Nc2ccc3c(c2)CCN(C(=O)/C=C/CN(C)C)C3)nc1-c1cnn(C(C)C)c1 | 0.0 |
| CCCCOc1c(OC)cc(C(=O)NCC2(N(C)C)CCOCC2)cc1OC.Cl | 0.0 |
| Nc1ccc(-c2cccc(C(=O)Nc3cnc4nc(N5CCOCC5)oc4c3)n2)cn1 | 0.0 |
| O=C(N/N=C/c1c(O)ccc2ccccc12)c1ccccc1O | 0.0 |
| CC1(C(=O)N[C@@H](CCCCCCCc2ccc3c(n2)NCCC3)C(=O)O)CCOCC1 | 0.0 |
| CCO.C[C@H]1c2cccc(O)c2C(O)=C2C(=O)[C@]3(O)C(O)=C(C(N)=O)C(=O)[C@@H](N(C)C)[C@@H]3[C@@H](O)[C@@H]21.C[C@H]1c2cccc(O)c2C(O)=C2C(=O)[C@]3(O)C(O)=C(C(N)=O)C(=O)[C@@H](N(C)C)[C@@H]3[C@@H](O)[C@@H]21.Cl.Cl.O | 0.0 |
| O=C(CC1(O)C(=O)Nc2c(Cl)ccc(Cl)c21)c1ccc(C2CC2)cc1 | 0.0 |
| CC(C)(C(=O)c1cccnc1)c1cccnc1 | 0.0 |
| O=C(Nc1ccccc1)N1CCC(Cc2cnc3ccccc3c2)CC1 | 0.0 |
| C[C@@H]1C[C@H]2[C@@H]3CCC4=CC(=O)C=C[C@]4(C)[C@@]3(F)[C@@H](O)C[C@]2(C)[C@@]1(O)C(=O)CO | 0.0 |
| COc1ccc2nc([S@@](=O)Cc3ncc(C)c(OC)c3C)[n-]c2c1.[Na+] | 0.0 |
| C[C@]12CC[C@H]3[C@@H](CC[C@]4(O)C[C@@H](O)CC[C@]34C=O)[C@@]1(O)CC[C@@H]2C1=CC(=O)OC1 | 0.0 |
| COc1cc2ncnc(N3CCN(C(=O)Nc4ccc(Oc5ccccc5)cc4)CC3)c2cc1OC | 0.0 |
| O=C(O)c1sc2cc(Cl)ccc2c1Cl | 0.0 |
| COc1ccc2cccc(CCNC(C)=O)c2c1 | 0.0 |
| COc1cc(C(C)=O)ccc1O | 0.0 |
| CC(=O)N1CCN(c2ccc(OC[C@H]3CO[C@](Cn4ccnc4)(c4ccc(Cl)cc4Cl)O3)cc2)CC1 | 0.0 |
| COc1nc(N(CC(C)(C)F)c2cc(Cl)c(F)cc2F)cnc1C(=O)[C@H]1C[C@@H]1C(=O)O | 0.0 |
| CCCCC1(C2CCCC2)Cc2cc(OCCCC(=O)O)c(Cl)c(Cl)c2C1=O | 0.0 |
| O=[N+]([O-])c1cccc2cn[nH]c12 | 0.0 |
| CC(CCN1CCN(c2ccc(F)cc2)CC1)NC(=O)c1cccnc1 | 0.0 |
| CCN1CCCC1CNC(=O)c1cc(S(=O)(=O)CC)ccc1OC.Cl | 0.0 |
| O=C(Nc1ccc(Cl)cc1)c1cc2ccccc2cc1OP(=O)(O)O | 0.0 |
| O=C(O)c1ccc(CCCc2c(CCNS(=O)(=O)Cc3ccccc3C(F)(F)F)n(C(c3ccccc3)c3ccccc3)c3ccc(Cl)cc23)cc1 | 0.0 |
| Cl.O=C(O)C1=CCCNC1 | 0.0 |
| CCCc1c2oc(C(=O)O)cc(=O)c2cc2c(=O)cc(C(=O)O)n(CC)c12 | 0.0 |
| C[C@H](CC(=O)C[C@@H](C)[C@H]1C[C@H](O)[C@@]2(C)C3=C(C(=O)C[C@]12C)[C@@]1(C)CC[C@H](O)C(C)(C)[C@@H]1C[C@@H]3O)C(=O)O | 0.0 |
| COC(=O)/C=C/c1ccc(O)c(O)c1 | 0.0 |
| C[C@@H](NC(=O)c1ccc(F)cc1)c1ccc2c(c1)CCN2C(=O)C1CCOCC1 | 0.0 |
| COc1ccccc1-c1cc2n(n1)Cc1ccc(NC(C)=O)cc1OC2 | 0.0 |
| COc1cc(C(=O)N(CCCc2ccccc2)Cc2ccc(CC(=O)O)cc2)cc(OC)c1C | 0.0 |
| O=C(Nc1ccc(F)cc1F)N1CCC(N(CCc2ccc(Cl)cc2)C(=O)c2csc3ccccc23)CC1 | 0.0 |
| COc1ccc(CCNCC(O)COc2cccc(C)c2)cc1OC.Cl | 0.0 |
| CCn1c(-c2nc3cc(C(=O)N4CCC[C@@H](N)C4)cc(OC)c3n2C)cc2cccnc21.Cl | 0.0 |
| Brc1cccc(-c2cc(-c3ccc4c(c3)OCO4)[nH]n2)c1 | 0.0 |
| O=C1C2=C(CCN(Cc3ccccc3)C2)N2CCN=C2N1Cc1ccc(F)cc1F | 0.0 |
| Cc1nn(CC(F)(F)F)cc1Nc1ncc(Br)c(NCc2ccc(S(N)(=O)=O)cc2)n1 | 0.0 |
| COc1cc2nc(N3CCN(C(=O)C4COc5ccccc5O4)CC3)nc(N)c2cc1OC | 0.0 |
| CCN(CC)c1ccc2cc(C(=O)O)c(=O)oc2c1 | 0.0 |
| O=c1cc(CO)occ1O | 0.0 |
| CNC(=O)O[C@H]1COc2ccc(N3CCN(C4COC4)CC3)cc2[C@@H]1NC(=O)c1ccc(F)cc1 | 0.0 |
| COc1cc2ncnc(Nc3ccc(F)c(Cl)c3)c2cc1O | 0.0 |
| CS(=O)(=O)c1cccc(C[C@H](NC(=O)c2c(Cl)cc3c(c2Cl)CCN(C(=O)c2ccc4ccoc4c2)C3)C(=O)O)c1 | 0.0 |
| FC(F)F.NCCCC[C@@H]1NC(=O)[C@@H](Cc2ccc(O)cc2)NC(=O)[C@H](CC(=O)O)NC(=O)CNC(=O)[C@H](CCCN=C(N)N)NC1=O.O=C(O)C(F)(F)F.O=CO | 0.0 |
| COC(=O)[C@H](Cc1ccc([N+](=O)[O-])cc1)NC(=O)c1cccc2ccccc12 | 0.0 |
| COc1ccccc1-c1nc(=Nc2ccccc2)sn1-c1ccccc1OC | 0.0 |
| CC(C)(C)C(=O)NCCC1CCN(c2ncnc3cc(C(N)=O)sc23)CC1 | 0.0 |
| Cn1c(=O)c2ncnnc2n(C)c1=O | 0.0 |
| Cc1c(CN2CCC(Nc3ncnc4sc(CC(F)(F)F)cc34)CC2)ccc2c1cc(C#N)n2Cc1cn[nH]c1 | 0.0 |
| Nc1ccc(Sc2nc3ccccc3s2)c(Cl)c1 | 0.0 |
| O.O=C1NC(=O)C(=O)C(=O)N1 | 0.0 |
| O=C1CC(Nc2ncnc3nc[nH]c23)CN1Cc1ccccc1 | 0.0 |
| CC(Oc1cc(NS(=O)(=O)N2CCC2)nc(SCc2cccc(F)c2F)n1)C(O)CO | 0.0 |
| NS(=O)(=O)c1nn2cc(-c3ccccc3)nc2s1 | 0.0 |
| COC(=O)N[C@H](C(=O)N1CCC[C@H]1c1ncc(-c2ccc(-c3ccc(-c4cnc([C@H]5CCCN5C(=O)[C@H](NC(=O)OC)C(C)C)[nH]4)cc3)c3c2OCO3)[nH]1)C(C)C.Cl.Cl | 0.0 |
| CN1CCC(S(=O)(=O)c2c(Cl)ccc(NC(=O)Nc3cccc(F)c3Cl)c2O)CC1 | 0.0 |
| CC1(C)CC(=O)c2sc(=Nc3ccccc3)oc2C1 | 0.0 |
| Cc1nc(-c2cc(C(=O)N3CCC(c4ccc(C#N)cc4)CC3)c(C)cc2C2CCC2)n[nH]1 | 0.0 |
| CC1(C)C(=O)Nc2cc3nc(-c4ccncc4)[nH]c3cc21 | 0.0 |
| COc1ccccc1CC(=O)Nc1nc2ccc(C)cc2s1 | 0.0 |
| COc1cc(C)c2c(=O)cc(C[C@@H](C)O)oc2c1[C@@H]1O[C@H](CO)[C@@H](O)[C@H](O)[C@H]1OC(=O)/C=C/c1ccc(O)cc1 | 0.0 |
| O=c1oc2cc(O)ccc2c2ccc(O)cc12 | 0.0 |
| Cl.O=S(=O)(NCCN1CCNCC1)c1ccc(NC2CCCCC2)c(NCc2ccccc2)c1 | 0.0 |
| Cl.Cl.O=C(NCCCNc1nc(Nc2cccc(CN3CCOCC3)c2)ncc1C1CC1)C1CCC1 | 0.0 |
| Nc1ccccc1COc1ccc(Oc2ccccc2)cc1 | 0.0 |
| COc1ccc(OC)c(-c2cc(=O)[nH]c(=S)n2CC(N)=O)c1 | 0.0 |
| COc1ccc2nc(S(=O)Cc3ncc(C)c(OC)c3C)[nH]c2c1.[Na] | 0.0 |
| COc1c(OCCCN2CCOCC2)ccc2c3n(c(=NC(=O)c4cnc(N)nc4)nc12)CCN3.Cl.Cl | 0.0 |
| CCOC(=O)[C@H](CCc1ccccc1)N[C@@H](C)C(=O)N1[C@H](C(=O)O)C[C@H]2CCCC[C@@H]21 | 0.0 |
| O=c1c(O[C@@H]2O[C@H](CO[C@@H]3O[C@H](CO)[C@@H](O)[C@H](O)[C@H]3O)[C@@H](O)[C@H](O)[C@H]2O)c(-c2ccc(O)cc2)oc2cc(O)cc(O)c12 | 0.0 |
| Cc1cc(COc2ccc([C@]3(N)CCN([C@H](CC(C)C)C(=O)NO)C3=O)cc2)c2ccccc2n1 | 0.0 |
| CC(=O)O[C@]1(C(C)=O)CC[C@H]2[C@@H]3C=C(Cl)C4=CC(=O)[C@@H]5C[C@@H]5[C@]4(C)[C@H]3CC[C@@]21C | 0.0 |
| Cc1ccc(CNC(=O)N2CCC[C@]3(CCN(Cc4ccc(Cl)c(Cl)c4)C3)C2)cc1 | 0.0 |
| COc1ccc2c(c1)NC(=O)CN2c1nc(C)nc2c1CCC2 | 0.0 |
| O=S(=O)(NC1CCC(c2cc(F)ccc2F)(S(=O)(=O)c2ccc(Cl)cc2)CC1)C(F)(F)F | 0.0 |
| CN1CCN(C2=Nc3ccccc3Oc3ccc(Cl)cc32)CC1 | 0.0 |
| O=C(NCCN1CCC2(CC1)C(=O)NCN2c1ccccc1)c1ccc2ccccc2c1 | 0.0 |
| O=c1[nH]ncc(N2CCc3c(ncnc3Oc3ccc(F)cc3C(F)(F)F)C2)c1Cl | 0.0 |
| c1ccc(-c2[nH]ncc2-c2ccnc3ccccc23)nc1 | 0.0 |
| O=C([O-])c1nc(=O)[nH]c(=O)[nH]1.[K+] | 0.0 |
| CC/C(=C(/c1ccc(OCCNC/C=C/C(=O)N(C)C)cc1)c1ccc2[nH]ncc2c1)c1ccccc1 | 0.0 |
| COc1cccc(-c2cn(-c3ccc(CCN4CCC(O)CC4)cc3)c3ncnc(N)c23)c1 | 0.0 |
| COc1ccc(OC)c(-c2ccc(NC(=O)c3ccncc3F)cc2)c1 | 0.0 |
| O=C(O)/C=C/c1cc(Br)c(Br)c(Br)c1Br | 0.0 |
| Cc1cc(C)c(-c2n[nH]c(C)c2C)cc1C(=O)N1CC(c2ccc(C#N)cc2)C1 | 0.0 |
| CCS(=O)(=O)c1ccc(CC(=O)Nc2ccc(C(C)(C)C(=O)Nc3ccc(F)cc3F)c(F)c2)cc1 | 0.0 |
| CCc1ccc(NC(=O)Nc2c[nH]c3ccccc23)cc1 | 0.0 |
| O=C(Nc1cccc(C(F)(F)F)c1)c1cccc2cc(Oc3cc(CO)ncn3)ccc12 | 0.0 |
| CN(C)c1ccc2c(c1)OC(N)=C(C#N)C2c1cccc(C(F)(F)F)c1 | 0.0 |
| CC(=O)Nc1ccc(/C=N/NC(N)=S)cc1 | 0.0 |
| CC(=O)OC[C@@H](COC(=O)/C=C/c1ccc(O)cc1)O[C@@H]1O[C@H](CO)[C@@H](O)[C@H](O)[C@H]1O | 0.0 |
| Cl.Cl.OCCOCCN1CCN(C(c2ccccc2)c2ccccc2)CC1 | 0.0 |
| COc1cc(NC(=O)Cc2cccc(-n3c(=O)c4c(C)onc4c4c(Cl)cccc43)c2)cc(OC)c1OC | 0.0 |
| C[C@H]1Oc2cc(cnc2N)-c2c(nn(C)c2C#N)CN(C)C(=O)c2ccc(F)cc21 | 0.0 |
| NNCCc1ccccc1.O=S(=O)(O)O | 0.0 |
| CCNC(=O)N1CCN(CCCC(c2ccc(F)cc2)c2ccc(F)cc2)CC1 | 0.0 |

The first 13 compounds once more:

smiles | inhibition [%]
COc1cccc2oc(-c3ccccc3)cc(=O)c12 | 0.0
CC[C@@H](c1nc2cccc(F)c2c(=O)n1C1CC1)n1nc(-c2ccc(OC)c(F)c2)c2c(N)ncnc21 | 0.0
Cc1cnc(Nc2ccc3c(c2)CCN(C(=O)/C=C/CN(C)C)C3)nc1-c1cnn(C(C)C)c1 | 0.0
CCCCOc1c(OC)cc(C(=O)NCC2(N(C)C)CCOCC2)cc1OC.Cl | 0.0
Nc1ccc(-c2cccc(C(=O)Nc3cnc4nc(N5CCOCC5)oc4c3)n2)cn1 | 0.0
O=C(N/N=C/c1c(O)ccc2ccccc12)c1ccccc1O | 0.0
CC1(C(=O)N[C@@H](CCCCCCCc2ccc3c(n2)NCCC3)C(=O)O)CCOCC1 | 0.0
CCO.C[C@H]1c2cccc(O)c2C(O)=C2C(=O)[C@]3(O)C(O)=C(C(N)=O)C(=O)[C@@H](N(C)C)[C@@H]3[C@@H](O)[C@@H]21.C[C@H]1c2cccc(O)c2C(O)=C2C(=O)[C@]3(O)C(O)=C(C(N)=O)C(=O)[C@@H](N(C)C)[C@@H]3[C@@H](O)[C@@H]21.Cl.Cl.O | 0.0
O=C(CC1(O)C(=O)Nc2c(Cl)ccc(Cl)c21)c1ccc(C2CC2)cc1 | 0.0
CC(C)(C(=O)c1cccnc1)c1cccnc1 | 0.0
O=C(Nc1ccccc1)N1CCC(Cc2cnc3ccccc3c2)CC1 | 0.0
C[C@@H]1C[C@H]2[C@@H]3CCC4=CC(=O)C=C[C@]4(C)[C@@]3(F)[C@@H](O)C[C@]2(C)[C@@]1(O)C(=O)CO | 0.0
COc1ccc2nc([S@@](=O)Cc3ncc(C)c(OC)c3C)[n-]c2c1.[Na+] | 0.0